Molecules are shown by their SMILES. A value given as a limit tells only on which side of the number the result lay.

In the experiment the target is mammalian target of rapamycin (mTOR) (Homo sapiens (Human), UniProt P42345). The note with it: read-out: mTOR IC50.
As usually defined, the IC50 is the concentration that gives 50% inhibition. On to `COc1ccc(Nc2ncc(CCO)cc2-c2nc(C)nc3[nH]cnc23)cn1` [Example 75, 2-(6-(6-methoxypyridin-3-ylamino)-5-(2-methyl-9H-purin-6-yl)pyridin-3-yl)ethanol], for which the IC50 came to 0.248 µM.

Consider `COc1ncc(Nc2ncc([C@H](C)N3CCN(S(C)(=O)=O)C[C@@H]3C)cc2-c2nc(C)nc3[nH]cnc23)cc1F` [Example 296, N-(5-Fluoro-6-Methoxypyridin-3-yl)-5-((S)-1-((S)-2-Methyl-4-(Methylsulfonyl)Piperazin-1-yl)Ethyl)-3-(2-Methyl-9H-Purin-6-yl)Pyridin-2-Amine], for which the IC50 is greater than 10 µM.

In the case of `COc1ccc(Nc2ncc(CN3CCn4ncnc4C3)cc2-c2nc(C)nc(N)n2)cn1` [Example 233, 4-(5-((5,6-Dihydro-[1,2,4]Triazolo[1,5-A]Pyrazin-7(8H)-yl)Methyl)-2-(6-Methoxypyridin-3-Ylamino)Pyridin-3-yl)-6-Methyl-1,3,5-Triazin-2-Amine], the IC50 turned out to be 4.8 µM.

Turning to `COc1ccc(Nc2ncc(CN3CCN(S(C)(=O)=O)CC3)cc2-c2cc(N)nc(C)n2)cn1` [Example 178, 6-(2-(6-Methoxypyridin-3-Ylamino)-5-((4-(Methylsulfonyl)Piperazin-1-yl)Methyl)Pyridin-3-yl)-2-Methylpyrimidin-4-Amine], the IC50 is greater than 10 µM.

For `COc1ccc(Nc2ncc(N3CC[C@@H](O)C3)cc2-c2nc(C)nc3[nH]cnc23)cn1` [Example 206, (3R)-1-(6-((6-Methoxy-3-Pyridinyl)Amino)-5-(2-Methyl-9H-Purin-6-yl)-3-Pyridinyl)-3-Pyrrolidinol], the IC50 amounted to 0.594 µM.

Turning to `COc1ccc(Nc2ncc(N3CC[C@H](O)C3)cc2-c2nc(C)nc3[nH]cnc23)cn1` [Example 205, (3S)-1-(6-((6-Methoxy-3-Pyridinyl)Amino)-5-(2-Methyl-9H-Purin-6-yl)-3-Pyridinyl)-3-Pyrrolidinol], the IC50 came out at 0.839 µM.

In the case of `Cc1nc(N)nc(-c2cc(CN3CCN(S(C)(=O)=O)CC3)cnc2Nc2cnc3c(c2)ncn3C)n1` [Example 203, N-(3-(4-Amino-6-Methyl-1,3,5-Triazin-2-yl)-5-((4-(Methylsulfonyl)Piperazin-1-yl)Methyl)Pyridin-2-yl)-3-Methyl-3H-Imidazo[4,5-B]Pyridin-6-Amine], the IC50 was greater than 10 µM.

Regarding `COc1cc(Nc2ncc([C@@H](C)N3CCN(S(C)(=O)=O)CC3)cc2-c2nc(C)nc(N)n2)cnc1Cl` [Example 341, (R)-4-(2-(6-Chloro-5-Methoxypyridin-3-Ylamino)-5-(1-(4-(Methylsulfonyl)Piperazin-1-yl)Ethyl)Pyridin-3-yl)-6-Methyl-1,3,5-Triazin-2-Amine], the IC50 is greater than 10 µM.

In the case of `COc1ccc(Nc2ncc(CNCCO)cc2-c2nc(C)nc(N)n2)cn1` [Example 225, 2-((5-(4-Amino-6-Methyl-1,3,5-Triazin-2-yl)-6-(6-Methoxypyridin-3-Ylamino)Pyridin-3-yl)Methylamino)Ethanol], the IC50 was greater than 10 µM.

`COc1cnc(Nc2ccc(OC)nc2)c(-c2nc(C)nc(N)n2)c1` [Example 33, 4-(5-Methoxy-2-(6-Methoxypyridin-3-Ylamino)Pyridin-3-yl)-6-Methyl-1,3,5-Triazin-2-Amine]: the IC50 was greater than 10 µM.

In the case of `COc1ccc(Nc2ccccc2-c2nc(C)nc(N)n2)cn1` [Example 239, 4-(2-(6-Methoxypyridin-3-Ylamino)Phenyl)-6-Methyl-1,3,5-Triazin-2-Amine], the IC50 was greater than 10 µM.

Consider `CNc1nc(C)nc(-c2cc(CN3CCN(S(C)(=O)=O)CC3)cnc2Nc2ccc(OC)nc2)n1` [Example 163, 4-(2-(6-Methoxypyridin-3-Ylamino)-5-((4-(Methylsulfonyl)Piperazin-1-yl)Methyl)Pyridin-3-yl)-N,6-Dimethyl-1,3,5-Triazin-2-Amine], for which the half-inhibitory concentration (IC50) was greater than 10 µM.

As for `COc1ncc(Nc2ncc(CN3CCOC[C@@H]3C)cc2-c2nc(C)nc(N)n2)cc1F` [Example 315, (S)-4-(2-(5-Fluoro-6-Methoxypyridin-3-Ylamino)-5-((3-Methylmorpholino)Methyl)Pyridin-3-yl)-6-Methyl-1,3,5-Triazin-2-Amine], the IC50 is greater than 10 µM.

As for `Cc1nc(N)cc(-c2cnccc2Nc2cccc3[nH]ncc23)n1` [Example 107, N-(3-(6-amino-2-methylpyrimidin-4-yl)pyridin-4-yl)-1H-indazol-4-amine], the half-maximal inhibitory concentration (IC50) was greater than 50 µM.

Regarding `COc1ccc(Nc2ncc(CO)cc2-c2nc(C)nc(N)n2)cn1` [Example 179, (5-(4-Amino-6-Methyl-1,3,5-Triazin-2-yl)-6-(6-Methoxypyridin-3-Ylamino)Pyridin-3-yl)Methanol], the half-inhibitory concentration (IC50) turned out to be 2.48 µM.

`COc1ccc(Nc2ncc(CN[C@H](C)CO)cc2-c2nc(C)nc(N)n2)cn1` [Example 226, (R)-2-((5-(4-Amino-6-Methyl-1,3,5-Triazin-2-yl)-6-(6-Methoxypyridin-3-Ylamino)Pyridin-3-yl)Methylamino)Propan-1-ol]: the half-maximal inhibitory concentration (IC50) is greater than 10 µM.

Turning to `Cc1nc(N)nc(-c2cc(-c3cnn(C)c3)cnc2Nc2cncc(F)c2)n1` [Example 258, 4-(2-(5-Fluoropyridin-3-Ylamino)-5-(1-Methyl-1H-Pyrazol-4-yl)Pyridin-3-yl)-6-Methyl-1,3,5-Triazin-2-Amine], the half-maximal inhibitory concentration (IC50) is greater than 10 µM.

In the case of `Cc1nc(N)nc(-c2cccnc2Nc2cnc(C)c(NS(C)(=O)=O)c2)n1` [Example 377, N-(5-(3-(4-Amino-6-Methyl-1,3,5-Triazin-2-yl)Pyridin-2-Ylamino)-2-Methylpyridin-3-yl)Methanesulfonamide], the concentration for half-maximal inhibition (IC50) was greater than 10 µM.

Consider `COc1ccc(Nc2ncc(CO)cc2-c2nc(C)nc3[nH]cnc23)cn1` [Example 76, (6-(6-Methoxypyridin-3-Ylamino)-5-(2-Methyl-9H-Purin-6-yl)Pyridin-3-yl)Methanol], for which the half-maximal inhibitory concentration (IC50) was determined as 0.924 µM.

Turning to `COc1ccc(Nc2ncc(CN3CCSCC3)cc2-c2nc(C)nc(N)n2)cn1` [Example 201, 4-(2-(6-Methoxypyridin-3-Ylamino)-5-(Thiomorpholinomethyl)Pyridin-3-yl)-6-Methyl-1,3,5-Triazin-2-Amine], the IC50 was greater than 10 µM.

As for `Cc1nc(N)nc(-c2cc(C(C)N3CCN(S(C)(=O)=O)CC3)cnc2Nc2ccc3scnc3c2)n1` (stereo not shown) [Example 290, N-(3-(4-Amino-6-Methyl-1,3,5-Triazin-2-yl)-5-(1-(4-(Methylsulfonyl)Piperazin-1-yl)Ethyl)Pyridin-2-yl)Benzo[D]Thiazol-5-Amine], the half-maximal inhibitory concentration (IC50) amounted to 0.202 µM.

Take `COc1ccc(Nc2ncc(-c3ccnnc3)cc2-c2nc(C)nc(N)n2)cn1` [Example 252, 4-(2-(6-Methoxypyridin-3-Ylamino)-5-(Pyridazin-4-yl)Pyridin-3-yl)-6-Methyl-1,3,5-Triazin-2-Amine]: the IC50 is greater than 10 µM.

`Cc1nc(-c2cc(Br)cnc2Nc2cccc3[nH]ncc23)c2nc[nH]c2n1` [Example 64, N-(5-bromo-3-(2-methyl-9H-purin-6-yl)pyridin-2-yl)-1H-indazol-4-amine]: the half-inhibitory concentration (IC50) is greater than 10 µM.

As for `Cc1nc(N)nc(-c2cc(Cl)cnc2Nc2cncc(F)c2)n1` [Example 257, 4-(5-Chloro-2-(5-Fluoropyridin-3-Ylamino)Pyridin-3-yl)-6-Methyl-1,3,5-Triazin-2-Amine], the IC50 was greater than 10 µM.

Turning to `COc1ncc(Nc2ncc(C(O)C(C)(C)O)cc2-c2nc(C)nc(N)n2)cc1F` (stereo not shown) [Example 347, 1-(5-(4-Amino-6-Methyl-1,3,5-Triazin-2-yl)-6-(5-Fluoro-6-Methoxypyridin-3-Ylamino)Pyridin-3-yl)-2-Methylpropane-1,2-Diol], the IC50 is greater than 10 µM.

For the origin of these results see patent US8772480B2, “Inhibitors of PI3 kinase and/or mTOR” (priority 2009, dated 2014).
